# Only a part is listed here, and it is no random draw. Active and inactive are the calls of the source. No stated cut-off is given here; in the data, active means inhibition above about 50%; inactive means the rest.
# Amino acid sequences for entries named in this document (tags omitted).
# UniProt P13612, whole entry, looked up: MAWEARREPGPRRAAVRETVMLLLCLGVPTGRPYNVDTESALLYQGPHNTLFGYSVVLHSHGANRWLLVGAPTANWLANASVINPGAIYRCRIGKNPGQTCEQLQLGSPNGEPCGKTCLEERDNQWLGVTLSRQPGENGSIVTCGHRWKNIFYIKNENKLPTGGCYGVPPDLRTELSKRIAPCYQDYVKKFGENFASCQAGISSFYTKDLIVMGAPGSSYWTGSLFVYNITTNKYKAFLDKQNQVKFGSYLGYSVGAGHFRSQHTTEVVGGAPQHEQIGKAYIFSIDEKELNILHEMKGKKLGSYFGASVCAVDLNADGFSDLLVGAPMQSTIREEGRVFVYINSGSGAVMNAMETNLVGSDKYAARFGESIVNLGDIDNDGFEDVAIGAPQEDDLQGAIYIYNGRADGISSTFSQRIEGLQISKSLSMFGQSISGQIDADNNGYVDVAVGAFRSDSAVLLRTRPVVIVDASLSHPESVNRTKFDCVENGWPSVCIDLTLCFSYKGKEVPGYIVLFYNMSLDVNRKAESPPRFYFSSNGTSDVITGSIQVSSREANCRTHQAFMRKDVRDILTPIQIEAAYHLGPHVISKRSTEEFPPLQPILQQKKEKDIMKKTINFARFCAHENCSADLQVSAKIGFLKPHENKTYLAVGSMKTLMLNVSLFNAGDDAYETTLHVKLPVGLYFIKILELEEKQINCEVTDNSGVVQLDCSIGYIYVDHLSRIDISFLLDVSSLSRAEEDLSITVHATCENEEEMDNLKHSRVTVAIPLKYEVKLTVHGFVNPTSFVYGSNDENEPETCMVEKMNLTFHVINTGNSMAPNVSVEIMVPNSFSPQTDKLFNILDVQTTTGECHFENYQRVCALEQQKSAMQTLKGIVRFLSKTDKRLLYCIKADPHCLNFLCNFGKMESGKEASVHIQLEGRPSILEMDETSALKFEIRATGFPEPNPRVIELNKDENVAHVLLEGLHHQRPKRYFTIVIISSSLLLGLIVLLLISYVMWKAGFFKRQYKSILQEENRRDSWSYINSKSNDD
# Molecular target: Integrin alpha-4 (Homo sapiens) (UniProt P13612)
# Assay: VLA-4 integrin binding inhibitors – MLPCN library, flow cytometry, VLA-4 expressing cells, VLA-4 allosteric modulator project, primary screen (AID 2557)
# Settings: ligand binding flow cytometry, stronger effect = higher value, about 7 µM as worked out from the volumes in the protocol
row,Structure (SMILES),inhibition
1,CCC(=O)N(c1ccccc1)C1(COC)CCN(CCn2nnn(CC)c2=O)CC1,inactive: 3.69%
2,CCC(=O)N(c1ccccc1)C1(COC)CCN(CCc2cccs2)CC1,inactive: 16.7%
